SMILES strings stand for the structures. The entries are a selection whose mix differs from that of the whole data set. Calls of active or inactive are those of the source.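 How the source made its calls: active means inhibition above the mean of all tested compounds plus 3 SD, set per campaign (cut at about 25% in these data); inactive means the rest.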

The chains behind the UniProt entries cited, without tags or fusion partners. Where a name states a change or a piece, a line headed by the entry shows the natural chain unless it says otherwise.
UniProt O95551: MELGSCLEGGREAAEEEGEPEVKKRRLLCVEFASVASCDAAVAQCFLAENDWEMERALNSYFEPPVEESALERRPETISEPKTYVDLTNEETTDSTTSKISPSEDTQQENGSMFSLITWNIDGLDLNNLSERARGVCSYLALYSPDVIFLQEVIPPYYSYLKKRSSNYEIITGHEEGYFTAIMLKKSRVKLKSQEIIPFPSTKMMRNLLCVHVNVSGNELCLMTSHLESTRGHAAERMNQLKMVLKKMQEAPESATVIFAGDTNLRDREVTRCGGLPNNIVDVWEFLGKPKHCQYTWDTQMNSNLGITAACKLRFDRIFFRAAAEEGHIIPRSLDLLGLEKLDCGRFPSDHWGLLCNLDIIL

In this assay the target is Tyrosyl-DNA phosphodiesterase 2 (Homo sapiens) (UniProt O95551). As to the kind of experiment: blockers of TDP2 phosphodiesterase activity – biochemical, epi absorbance, recombinant enzyme, primary screen (AID 720702).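 Further: 0% = DMSO with enzyme and 100% = buffer with substrate but no TDP2.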 As to conditions: recombinant TDP2, T5PNP hydrolysis, p-nitrophenol absorbance 415 nm; at 12.8 µM; active compounds read high. The procedure, abridged: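 Assay system: Recombinant human TDP2 | Quantity: 120 nM TDP2 per well | Incubation: 2 h at 37 °C | Signal: Epi absorbance | Evaluation: Percent inhibition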
In the case of `CCCC1OP(N)(=O)OCC1CC` (stereo not given), the inhibition is inactive: 2.02%.

For the molecule `O=P(Nc1nc2ccc(Cl)cc2s1)(c1ccccc1)c1ccccc1`, the inhibition is inactive: 6.88%.

With `CN(C)P(=O)(N(C)C)n1c(Nc2ccccc2)nnc1-c1ccccc1`, the inhibition is inactive: 6.91%.

Take `Cc1cc(SC(NC(=O)c2ccc(F)cc2)C(Cl)(Cl)Cl)ncn1` (stereo not given): the inhibition was inactive: -2%.

With `CCOP(=O)(Nc1ccccc1)OCC`, the inhibition was inactive: -5.75%.

In the case of `Cc1ccc(NP(=O)(Oc2ccccc2F)Oc2ccccc2F)nc1`, the inhibition is inactive: 9.33%.

For the molecule `CN(C(=O)Cc1ccc(Cl)c(Cl)c1)[C@H]1CCCC[C@@H]1N1CCCC1`, the inhibition was inactive: -3.15%.

Regarding `CCn1c(=O)n(C2CCN(CC3CCCCCCC3)C[C@H]2CO)c2ccccc21` (stereo not given in full), the inhibition is inactive: 1.55%.

For the molecule `CN(C(=O)Cc1ccccc1)C1CC[C@@]2(CCCO2)C[C@@H]1N1CCCC1` (stereo not given in full), the inhibition is inactive: -7.79%.

As for `CCN(N=Nc1nonc1N)c1nonc1N`, the inhibition is inactive: -6.86%.

As for `Nc1cccc2ccc([As](=O)(O)O)cc12`, the inhibition was active: 37.2%.

Turning to `NC(=O)c1cc([N+](=O)[O-])cc([N+](=O)[O-])c1N`, the inhibition was inactive: -1.47%.

Turning to `CN(C(=O)Cc1ccc(Cl)c(Cl)c1)[C@H]1CCCC[C@H]1N1CCCC1`, the inhibition is inactive: -9.47%.

Take `Cc1ccc(N/C(=N/P(=O)(N2CCOCC2)N2CCOCC2)N2CCOCC2)cc1`: the inhibition is inactive: -2.37%.

As for `COc1ccccc1OP(=O)(Nc1ccc(C)cn1)Oc1ccccc1OC`, the inhibition was inactive: -9.21%.

In the case of `Cc1ccc(OP(=O)(Nc2nccs2)Oc2ccc(C)cc2)cc1`, the inhibition was inactive: 4.43%.

Take `CN1CCCC(OC(=O)C(c2ccccc2)c2ccccc2)C1` (stereo not given): the inhibition was inactive: 3.79%.

In the case of `Clc1ccc(Cl)c(NC2=NCC(CBr)S2)c1` (stereo not given), the inhibition was inactive: 3.33%.

For the molecule `Nc1cc(N)c2nonc2c1[N+](=O)[O-]`, the inhibition was inactive: 17.7%.

Take `CC(C)CC(=O)NC(Sc1ccc(Cl)cc1)C(Cl)(Cl)Cl` (stereo not given): the inhibition was inactive: -12.5%.

Take `Oc1ccccc1CNc1ccccn1`: the inhibition was inactive: 1.94%.

As to `O=C(NC(Sc1ccncn1)C(Cl)(Cl)Cl)c1ccccc1` (stereo not given), the inhibition was inactive: -4.42%.

For `O=C(OC1CN2CCC1CC2)C12CC3CC(CC(C3)C1)C2` (stereo not given), the inhibition was inactive: -9.13%.

Take `Cc1cc(=O)[nH]c(N[N+](=O)[O-])n1`: the inhibition was inactive: 4.93%.

As for `Cc1c2c(nc3ccccc13)SC(C(Cl)Cl)C2` (stereo not given), the inhibition is inactive: 1.02%.

With `COc1ccc2nc(NP(=O)(c3ccccc3)c3ccccc3)sc2c1`, the inhibition is inactive: 4.15%.

`COc1cc(I)ccc1[As](=O)(O)O`: the inhibition is inactive: -11.2%.

On to `O=P1(N(CCCl)CCCl)OCCCN1CCCl` (stereo not given), for which the inhibition is inactive: 3.75%.

With `O=P1(N(CCCl)CCCl)Nc2ccccc2N1`, the inhibition was inactive: 4.65%.

Consider `COc1ccc(N/C(=N/P(=O)(N2CCOCC2)N2CCOCC2)N2CCOCC2)cc1`, for which the inhibition was inactive: 3.56%.

On to `O=[N+]([O-])c1cc(Oc2ccc([N+](=O)[O-])cc2C(F)(F)F)cc([N+](=O)[O-])c1`, for which the inhibition was inactive: 2.4%.

Regarding `O=[As](O)(c1ccc(O)cc1)c1ccccc1O`, the inhibition was inactive: -1.13%.

Take `C[As](=O)(O)c1cccc(C(=O)O)c1`: the inhibition is inactive: -7.74%.

On to `O=[N+]([O-])c1ccc(-c2cc([N+](=O)[O-])c(O)c([N+](=O)[O-])c2)cc1`, for which the inhibition is inactive: -10.7%.

For `COc1cc(C(=O)NCC2(N3CCOCC3)CCCCC2)ccc1OCC(C)C`, the inhibition is inactive: 2.24%.

Take `Cc1ccc2nc3c(c(C)c2c1)CC(C(Cl)Cl)S3` (stereo not given): the inhibition was inactive: -7.21%.

Turning to `[N-]=[N+]=NC1CCCCC1NC(=O)c1cc([N+](=O)[O-])cc([N+](=O)[O-])c1` (stereo not given), the inhibition was inactive: 14.3%.

Take `Cc1ccc(OP(=O)(Nc2ccc([N+](=O)[O-])cn2)Oc2ccc(C)cc2)cc1`: the inhibition is inactive: -1.68%.

Turning to `COC(=O)C1(C)COP(=O)(N2CCCCCC2)OC1` (stereo not given), the inhibition is inactive: 8.74%.

For `CC(C)c1ccc(OP(=O)(Nc2ccccn2)Oc2ccccc2F)cc1` (stereo not given), the inhibition is inactive: -9.12%.

For `ClCCSc1nnc(-c2cccnc2)o1`, the inhibition was inactive: 2.59%.

On to `CC(C)NC(=O)NP(=O)(Oc1ccccc1)Oc1ccccc1`, for which the inhibition was inactive: 0.36%.

For the molecule `O=C(OC1CN2CCC1CC2)c1cccc2[nH]cnc12` (stereo not given), the inhibition was inactive: -7.36%.

On to `CCN(CC)C(=S)SC(NC=O)C(Cl)(Cl)Cl` (stereo not given), for which the inhibition is inactive: 6.18%.

Consider `CC1CCNP(=O)(N(CCCl)CCCl)O1` (stereo not given), for which the inhibition is inactive: -16.6%.

Turning to `CCOC(=O)Nc1ccc([As](=O)(O)O)c(O)c1`, the inhibition is inactive: 13.2%.

For the molecule `O=C(O)C(O)c1ccc(N(CCCl)CCCl)cc1` (stereo not given), the inhibition is inactive: -1.62%.

On to `CCCCOc1ccc(C(=O)NCC2(N3CCCCC3)CCCCC2)cc1OC`, for which the inhibition is inactive: 9.37%.

With `Cc1cc(SC(NC(=O)c2ccccc2)C(Cl)(Cl)Cl)nc(C(C)C)n1` (stereo not given), the inhibition is inactive: 12.6%.

Turning to `COP(=O)(OC)N1CC1c1ccccc1` (stereo not given), the inhibition was inactive: 1.02%.

For the molecule `CCOC(=O)Nc1cccc([As](=O)(O)O)c1`, the inhibition is inactive: -0.53%.

Regarding `O=[N+]([O-])c1ccc(Nc2ccc(Oc3ccc([N+](=O)[O-])cc3[N+](=O)[O-])cc2)c([N+](=O)[O-])c1`, the inhibition was inactive: 1.07%.

For `O=P(Nc1ccccn1)(c1cccc2ccccc12)c1cccc2ccccc12`, the inhibition was inactive: 10.6%.

Regarding `Cc1cc(SC(NC=O)C(Cl)(Cl)Cl)ncn1` (stereo not given), the inhibition is inactive: 5.24%.

`COP1(=S)c2c(C)nn(CCC#N)c2N=C(c2ccc(F)cc2)N1C` (stereo not given): the inhibition was inactive: -1.81%.

For the molecule `COC(=O)C1(C)COP(=O)(N2CCCC2)OC1` (stereo not given), the inhibition is inactive: -12.6%.

In the case of `O=C(COc1ccccc1)OC1CN2CCC1CC2` (stereo not given), the inhibition was inactive: 5.39%.

With `O=C(Nc1ccncc1[N+](=O)[O-])c1ccc([N+](=O)[O-])cc1[N+](=O)[O-]`, the inhibition is inactive: -11.3%.

For the molecule `O=C(O)C(=O)c1ccc(N(CCCl)CCCl)cc1`, the inhibition was inactive: 1.18%.

`CCOC(=O)c1ccc(NC(=O)C(C)(CCl)SC)cc1` (stereo not given): the inhibition was inactive: -8.09%.

For `O=C(OC1CN2CCC1CC2)c1cccc([N+](=O)[O-])c1` (stereo not given), the inhibition was inactive: 7.48%.

Take `CCC(C)N(CC(C)C)C(=S)SC(NC(C)=O)C(Cl)(Cl)Cl` (stereo not given): the inhibition is inactive: -4.54%.

For `CCOP(=O)(Nc1ccc(C)cn1)OCC`, the inhibition is inactive: 2.89%.

With `CN(CCCl)Cc1cc(Cl)c(NC2=NCCN2)c(Cl)c1`, the inhibition is inactive: 10.9%.

Take `O=P1(Nc2ccccn2)COc2ccccc2OC1`: the inhibition was inactive: 6.92%.

A word on the inhibition: it is the change of the read-out against control, counted positive when it falls.
